Laboratory results taken from patent US7875602B2 (priority 2005, dated 2011).

Tests used:
[1] = test system: HCT116: human colon cancer cell line; assay: cells; settings: HCT-116, 72 h, read-out: IC50 (nM) HCT116
[2] = test system: VM46: taxol-resistant, overexpressing multi-drug resistant gene, sub-line of HCT-116; assay: cells; settings: Homo sapiens, HCT-116, 72 h, read-out: IC50 (nM) VM46

SMILES	IC50 [1] [nM]	IC50 [2] [nM]
CC[C@@]1(OC(=O)CON=C2c3cc([N+](=O)[O-])cc([N+](=O)[O-])c3-c3c2cc([N+](=O)[O-])cc3[N+](=O)[O-])C(=O)OCc2c1cc1n(c2=O)Cc2cc3c(CN(C)C)c(O)ccc3nc2-1 [Compound 16]	8.6	6.7
CC[C@@]1(OC(=O)CON=C2c3cc([N+](=O)[O-])cc([N+](=O)[O-])c3-c3c2cc([N+](=O)[O-])cc3[N+](=O)[O-])C(=O)OCc2c1cc1n(c2=O)Cc2cc3cc(OC(=O)OC(C)(C)C)ccc3nc2-1 [Compound 8, 20-O-(TNF-ethanoyl)-Boc-10H-CPT ester]	3	0.6
CC[C@@]1(OC(=O)CON=C2c3ccccc3-c3ccccc32)C(=O)OCc2c1cc1n(c2=O)Cc2cc3ccccc3nc2-1 [Compound 19]	3	0.6
CC[C@@]1(OC(=O)[C@@H](C)ON=C2c3cc([N+](=O)[O-])cc([N+](=O)[O-])c3-c3c2cc([N+](=O)[O-])cc3[N+](=O)[O-])C(=O)OCc2c1cc1n(c2=O)Cc2cc3ccccc3nc2-1 [Compound 13]	3.2	3
CC[C@@]1(OC(=O)[C@@H](C)ON=C2c3cc([N+](=O)[O-])cc([N+](=O)[O-])c3-c3c2cc([N+](=O)[O-])cc3[N+](=O)[O-])C(=O)OCc2c1cc1n(c2=O)Cc2cc3cc(O)ccc3nc2-1 [Compound 20]	3.3	1.5
CC[C@@]1(OC(=O)[C@H](C)ON=C2c3cc([N+](=O)[O-])cc([N+](=O)[O-])c3-c3c2cc([N+](=O)[O-])cc3[N+](=O)[O-])C(=O)OCc2c1cc1n(c2=O)Cc2cc3ccccc3nc2-1 [Compound 17]	4	3
CC[C@@]1(OC(=O)C(C)ON=C2c3ccccc3-c3ccccc32)C(=O)OCc2c1cc1n(c2=O)Cc2cc3cc(OC(=O)OC(C)(C)C)ccc3nc2-1 (some centres unmarked) [Compound 21]	3	0.6
CC[C@@]1(OC(=O)[C@@H](C)ON=C2c3cc([N+](=O)[O-])cc([N+](=O)[O-])c3-c3c2cc([N+](=O)[O-])cc3[N+](=O)[O-])C(=O)OCc2c1cc1n(c2=O)Cc2cc3c(CN(C)C)c(O)ccc3nc2-1 [Compound 10]	16.4	11
CC[C@]1(OC(=O)[C@H](C)ON=C2c3cc([N+](=O)[O-])cc([N+](=O)[O-])c3-c3c2cc([N+](=O)[O-])cc3[N+](=O)[O-])C(=O)OCc2c1cc1n(c2=O)Cc2cc3c(CN(C)C)c(O)ccc3nc2-1 [Compound 12]	7.7	5.7
CC[C@@]1(O)C(=O)OCc2c1cc1n(c2=O)Cc2cc3c(CN(C)C)c(O)ccc3nc2-1 [Topotecan, (20S)-9-dimethylaminomethyl-10-hydroxy CPT, reference compound]	10.3	10.6
